{"source": "paper PMC9229949", "about": "(Pharmaceutics, 2022)", "key": {"[1]": {"tested_on": "P. falciparum W2 (CQ-resistant) asexual blood stages", "assay": "In vitro activity against asexual blood stages of P. falciparum, CQ-resistant strain W2 (HRP2 ELISA)", "type": "cell-based", "conditions": "CC50 (J774)/IC50 (W2)", "experimental": "The asexual blood stages of CQ-susceptible strain (3D7) and CQ-resistant strain (W2) of P. falciparum were maintained in culture in RPMI-1640 supplemented with 10% human serum (Abcys S.A., Paris, France) and buffered with 25 mM 4-(2-hydroxyethyl)-1-piperazineethanesulfonic acid (HEPES) and 25 mM NaHCO3. Parasites were grown in A-positive human blood (Etablissement Français du Sang, Marseille, France) under controlled atmospheric conditions of 10% O2, 5% CO2 and 85% N2 at 37 °C with a humidity of 95%. […]. The plates were incubated for 72 h at 37 °C in controlled atmosphere. After frozen and thawing the plates, hemolyzed cultures were homogenized by vortexing the plates. The antiparasitic activity was determined using the HRP2 ELISA-based assay Malaria Ag Celisa kit (ref KM2159, Cellabs PTY LDT, Brookvale, Australia). […] IC50s are expressed as means of three to five experiments."}, "[2]": {"assay": "Cytotoxicity against J774 cells (CellTiter-Glo)", "type": "cell-based, murine", "conditions": "mouse, J774 macrophage cells, J774 macrophages, CellTiterGlo, at least two experiments", "experimental": "In vitro cytotoxicity was assayed against two mammalian cell lineages, J774 (murine macrophages) and HepG2 (human hepatocellular carcinoma). […] Cell cultures from 60 to 80% confluence were trypsinized, washed in complete medium, and 4 × 10^4 cells were plated in 100 µL per well with complete medium in 96-well flat-bottom white plates for 24 h at 37 °C prior to the addition of the compounds. Triplicate aliquots of compound and the reference drugs (stock solution in DMSO) covering 7 different concentrations at 2-fold dilutions were added to the wells, and plates were incubated for 72 h more. After incubation for 72 h at 37 °C, plates were maintained at room temperature, the culture medium was removed, and 100 µL volume of CellTiter-Glo reagent was added to each well. The bioluminescence was measured using a microplate reader Filtermax F5 Multi-Mode instrument (Molecular Devices) and Softmax software. […] The selectivity index (S.I.) was estimated using the IC50s from mammalian cells divided by the IC50 obtained against the asexual blood stage P. falciparum."}, "[3]": {"tested_on": "P. falciparum 3D7 (CQ-susceptible) asexual blood stages", "assay": "In vitro activity against asexual blood stages of P. falciparum, CQ-susceptible strain 3D7 (HRP2 ELISA)", "type": "cell-based", "conditions": "CC50 (J774)/IC50 (3D7)", "experimental": "The plates were incubated for 72 h at 37 °C in controlled atmosphere. After frozen and thawing the plates, hemolyzed cultures were homogenized by vortexing the plates. The antiparasitic activity was determined using the HRP2 ELISA-based assay Malaria Ag Celisa kit (ref KM2159, Cellabs PTY LDT, Brookvale, Australia). […] IC50s are expressed as means of three to five experiments."}}, "data": [{"smiles": "COc1cc(NC(C)CCCN)c2ncccc2c1", "note": "(stereo not drawn) [Primaquine (PQ), primaquine]", "values": [{"measurement": "Selectivity Index W2", "setting": "[1]", "value": 200}, {"measurement": "CC50 at 72 h", "setting": "[2]", "value": 36.5, "unit": "µM"}, {"measurement": "Selectivity Index 3D7", "setting": "[3]", "value": 32}]}]}
